Literature values as cited in publication PMC13348789.

Protein sequences, listed by entry. Tags and fused reporters are not part of them. Residues count along the entry.
UniProt P01589, 22-240, chain 1 of 3: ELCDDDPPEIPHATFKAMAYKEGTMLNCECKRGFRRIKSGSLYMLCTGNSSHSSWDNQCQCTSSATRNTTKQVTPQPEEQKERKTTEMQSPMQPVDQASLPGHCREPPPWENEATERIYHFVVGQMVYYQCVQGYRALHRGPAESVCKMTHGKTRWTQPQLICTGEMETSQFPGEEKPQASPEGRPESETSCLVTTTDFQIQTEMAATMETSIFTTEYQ
UniProt P60568, 21-153: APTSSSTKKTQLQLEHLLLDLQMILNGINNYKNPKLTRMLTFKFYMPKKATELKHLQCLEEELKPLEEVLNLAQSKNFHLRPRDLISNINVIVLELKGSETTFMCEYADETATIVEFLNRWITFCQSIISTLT

Target: IL-2Rα/IL-2Rβ/γc trimeric receptor (Homo sapiens) (UniProt P01589)

For IL-2 (from UniProt P60568), the Kd is given as 10 pM.
